# Assay outcomes as filed in PubChem BioAssay.
# S100A4 inh HTS – inhibitors of human S100A4 binding to myosin IIA peptide; P26447; S100A4/TAMRA-MyoIIA peptide fluorescence polarization; inhibition, % at 10.7 µM; hit rate 0.14% among 360,000;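 active = mean inhibition of at least 70% across replicates, with every replicate also reaching that level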
#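 Assay system: human S100A4 monomer with TAMRA-labelled myosin IIA peptide / Buffer or medium: Calcium-containing HEPES buffer, pH 7.2 / Reagent: TAMRA-labelled myosin IIA heavy-chain peptide probe, 5 nM / Compound: one dose per compound / Timing: polarization read 5 min after assay mix addition, stable 5–60 min / Benchmarks: neutral control DMSO, positive control TFP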
# SIRT5 inh – inhibitors of human sirtuin-5 desuccinylase. Purified SirT5, succinyl-peptide AMC, trypsin-coupled fluorescence. Q9NXA8. inhibition, % at 15 µM. hit rate 1.1% among 330,000; in the data active = inhibition above about 15%
# FGF22 binding – shifts melting point of recombinant human FGF22; Q9HCT0; recombinant FGF22 thermal shift, SYPRO orange fluorescence; percent of sucrose octasulfate shift, DMSO zero; activity (Tm shift, normalised), % at 9.99 µM; hit rate 1.5% among 340,000;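 active = mean Tm shift, scaled 0 neutral to 100 positive control, at about 1.3% or above, every replicate too, limit read from the data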
# PDI inh – blocks human protein disulfide isomerase activity | P07237 | PDI insulin aggregation turbidity, A650, 90 min | inhibition, % at 10 µM | hit rate 0.052% among 350,000 | AID 588391;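 active = mean inhibition across replicates of 30% or more, whatever share of single replicates reach that level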
# ERp5 inh – ERp5 (human) disulfide isomerase inhibition; hit rate 0.05% among 350,000; AID 651711; ERp5 insulin aggregation, absorbance 650 nm, 90 min; Q15084; inhibition, % at 9.99 µM;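 active = mean replicate inhibition above about 25%, with every replicate also reaching it, limit read from the data, passing the limit was not always enough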
# UUG fidelity – modulators of yeast start codon fidelity, primary screen, whole organism, S. cerevisiae, single point, plate reader; S. cerevisiae UUG-firefly luciferase reporter, luminescence/redox ratio; activity score, % at 18.7 µM; actives 0.13% (n = 350,000);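 active means replicate mean at a twofold rise or more, about +100% in these data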;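 further: firefly luciferase made from a UUG start codon reports start codon fidelity; reporter light over untreated wells divided by growth signal over untreated wells; some hits fall short of that in this replicate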
# * marks the source's active call; other numbers are inactive results; . = not tested or not shown. This is a sample that favours compounds with a hit; in the whole collection about 2.2% have one here.
SMILES,S100A4 inh HTS,SIRT5 inh,FGF22 binding,PDI inh,ERp5 inh,UUG fidelity
COc1ccc(S(=O)(=O)N(C)C[C@@H]2OCCCC[C@H](C)Oc3ccc(NC(=O)Nc4ccc5c(c4)OCO5)cc3C(=O)N([C@H](C)CO)C[C@@H]2C)cc1,-6.2,6.1,-0.1,.,-3.6,-15.9
COc1cc([N+](=O)[O-])c(C)cc1NC(=O)c1ccc(OC)c(OC)c1,1.3,.,43.2*,-2.4,-2.3,-17.4
CC(=O)Nc1cccc(NC(=O)c2ccc(C)c([N+](=O)[O-])c2)c1,-1.5,16.6*,0.5,-5.3,5.2,.
COc1ccc(C(=O)NC(=S)Nc2ccccc2[N+](=O)[O-])cc1OC,-1.1,-4.2,0.3,6.3,9.1,.
CCC(=O)N[C@@H]1CC[C@@H](CC(=O)NCc2cc(F)cc(F)c2)O[C@@H]1CO,12.7,3.3,-0.4,.,-3.6,-3.3
COc1ccc(NC(=O)Nc2cccc3c2O[C@@H](CN(C)S(=O)(=O)c2cccs2)[C@H](C)CN([C@@H](C)CO)C3=O)cc1,5.0,-0.8,-0.3,.,.,10.9
CNCc1cc(Br)c(OCC(=O)Nc2ccccc2OC)c(OC)c1,2.9,24.3*,0.2,13.5,3.9,.
COc1ccccc1NC(=O)CNc1ccc(F)c(Cl)c1,-21.2,31.0*,-0.2,3.6,-4.1,.
COc1ccccc1NC(=O)NCC(=O)Nc1ccc(F)c(F)c1,.,.,.,3.5,.,-34.3
CCNCc1cc(Br)c(OCC(=O)Nc2ccccc2)c(OC)c1,.,.,.,-1.3,.,-20.4
COc1ccccc1NC(=O)CCS(=O)(=O)c1ccccc1,-1.7,.,0.5,6.2,4.2,.
COc1ccccc1NC(=O)CCCCC(=O)Nc1ccccc1OC,-1.4,16.1*,-0.2,-5.1,1.5,-16.6
COc1ccc(NC(=O)N(C)C[C@@H]2Oc3ncc(C#CCC(C)C)cc3C(=O)N([C@@H](C)CO)C[C@H]2C)cc1,-8.2,2.8,0.2,.,0.4,.
Cc1ccc(S(=O)(=O)N[C@@H]2C=C[C@H](CC(=O)NC3CCCCC3)O[C@@H]2CO)cc1,6.5,0.6,-0.3,.,-1.6,2.9
C[C@H](CO)N1C[C@H](C)[C@@H](CN(C)C(=O)Nc2ccc(F)cc2)Oc2ccc(NC(=O)CCCCCC(=O)Nc3ccccc3N)cc2C1=O,1.5,.,0.0,.,4.3,.
Cc1noc(C)c1S(=O)(=O)N(C)C[C@H]1Oc2ccc(NS(=O)(=O)c3ccc(Cl)cc3)cc2C(=O)N([C@@H](C)CO)C[C@H]1C,4.1,-3.9,0.1,.,-5.1,-1.2
CO/N=C\CC(=O)Nc1ccc(Cl)cc1Cl,7.2,-3.4,42.9*,0.3,0.1,.
CO/N=C\CC(=O)Nc1ccc(F)cc1,.,.,.,-2.7,.,-17.8
COc1cccc(-n2c(SCC(N)=O)nc3ccccc3c2=O)c1,-11.2,-1.0,0.1,-6.5,-0.1,.
COc1cccc(-n2c(SCC(=O)NC3CC3)nc3ccccc3c2=O)c1,-0.2,.,43.3*,-2.2,-2.4,-11.5
CCS(=O)(=O)N1CCC2(CC1)CN(C(=O)NC(C)C)[C@H](CO)c1c2c2ccc(OC)cc2n1C,1.9,1.7,0.0,.,-3.8,.
O=C(Nc1cccc(F)c1)/C(=C\c1cccnc1)NC(=O)c1ccco1,0.4,-3.0,44.2*,2.8,-8.7,.
O=C(Nc1ccccc1)/C(=C/c1ccc(O)cc1)NC(=O)c1ccco1,-2.4,30.0*,-0.3,-3.1,0.3,-28.0
O=S1(=O)CC(N2CCN(CCO)CC2)CN1Cc1cn(Cc2cccc(C(F)(F)F)c2)nn1 (stereo unspecified),7.3,23.4*,0.1,.,0.2,.
CN(C)CCN1CCN(C2CN(Cc3cn(Cc4cccc(C(F)(F)F)c4)nn3)S(=O)(=O)C2)CC1 (stereo unspecified),0.1,0.5,-0.2,.,-5.0,.
# The listing continues:
SMILES,S100A4 inh HTS,SIRT5 inh,FGF22 binding,PDI inh,ERp5 inh,UUG fidelity
Cc1cc(C)cc(Cn2cc(CN3CC(N4CCN(CCO)CC4)CS3(=O)=O)nn2)c1 (stereo unspecified),-6.4,29.3*,-0.3,.,-2.0,.
C[C@H]1CN([C@@H](C)CO)C(=O)c2cccc(NS(=O)(=O)c3ccc(F)cc3)c2O[C@@H]1CN(C)S(=O)(=O)c1ccc(F)cc1,-21.2,-3.5,0.1,.,8.1,1.7
CC(C)C#Cc1ccc([C@@H]2[C@@H](CO)N3CCCCN(C(=O)Nc4ccccc4)C[C@@H]23)cc1,0.7,5.3,-0.4,.,-4.7,12.9
CN(C)CCCNC(=O)C[C@@H]1CC[C@H]2[C@@H](COC[C@@H](O)CN2Cc2ccc(Cl)c(Cl)c2)O1,137.5*,4.2,-0.4,.,-2.8,.
CN(C)CCCNC(=O)C[C@H]1CC[C@H]2[C@@H](COC[C@H](O)CN2S(=O)(=O)c2ccc(F)cc2)O1,9.5,21.8*,0.0,.,3.2,-6.7
O=C(C[C@H]1CC[C@@H]2[C@H](COC[C@@H](O)CN2S(=O)(=O)c2ccccc2)O1)NCC1CCCCC1,-28.7,100.2*,0.0,.,-3.8,5.5
O=C(C[C@@H]1CC[C@@H]2[C@H](COC[C@H](O)CN2S(=O)(=O)c2ccccc2)O1)NCC1CCCCC1,15.4,3.0,-0.4,.,3.4,14.2
CCCNC(=O)C[C@H]1CC[C@H]2[C@@H](COC[C@@H](O)CN2Cc2ccc(Cl)c(Cl)c2)O1,0.0,0.1,-0.3,.,1.5,24.4
Cc1ccccc1S(=O)(=O)N1C[C@@H](O)COC[C@H]2O[C@H](CC(=O)NCc3ccccc3Cl)CC[C@@H]21,7.1,1.9,-0.3,.,0.8,16.0
Cc1ccccc1S(=O)(=O)N1C[C@H](O)COC[C@@H]2O[C@@H](CC(=O)NCc3ccccc3Cl)CC[C@H]21,114.5*,9.1,-0.7,.,-1.3,52.7
CC=Cc1ccc2n(c1=O)C[C@@H]1[C@@H](CO)[C@H](C(=O)NCCc3cn(C)cn3)N(C(=O)CC)[C@H]21 (mixture of isomers),-5.6,-2.3,.,.,-5.6,.
CCN1[C@@H]2c3cccc(=O)n3C[C@@H]2[C@@H](CO)[C@@H]1C(=O)N1CCc2ccccc2C1,17.5,3.1,0.0,.,-0.2,.
Cc1noc(C)c1NC(=O)N(C)C[C@H]1OCCCC[C@H](C)Oc2ccc(NS(=O)(=O)c3cn(C)cn3)cc2C(=O)N([C@H](C)CO)C[C@@H]1C,.,.,0.0,.,.,-9.7
O=C(C[C@@H]1CC[C@@H]2[C@H](COC[C@H](O)CN2Cc2ccc3c(c2)OCO3)O1)Nc1ccc(-c2ccccc2)cc1,-4.7,15.2*,0.0,.,-3.7,2.8
O=C(C[C@@H]1CC[C@H]2[C@@H](COC[C@H](O)CN2S(=O)(=O)c2cccc(Cl)c2)O1)Nc1ccc(-c2ccccc2)cc1,-0.4,9.6,2.7*,.,-3.0,.
O=C(C[C@H]1CC[C@@H]2[C@H](COC[C@@H](O)CN2Cc2ccc3c(c2)OCO3)O1)Nc1ccc(-c2ccccc2)cc1,5.9,4.4,0.2,.,-3.5,11.8
O=C(NCc1ccc(F)cc1)[C@H]1[C@H](CO)[C@H]2Cn3c(cccc3=O)[C@@H]1N2Cc1ccncc1,-17.4,0.8,-0.1,.,-4.6,.

# One compound at a time (already shown). Order of screens: S100A4 inh HTS | SIRT5 inh | FGF22 binding | PDI inh | ERp5 inh | UUG fidelity
# Cc1ccccc1S(=O)(=O)N1C[C@H](O)COC[C@@H]2O[C@@H](CC(=O)NCc3ccccc3Cl)CC[C@H]21 is entered as 114.5* | 9.1 | -0.7 | . | -1.3 | 52.7
# Cc1noc(C)c1NC(=O)N(C)C[C@H]1OCCCC[C@H](C)Oc2ccc(NS(=O)(=O)c3cn(C)cn3)cc2C(=O)N([C@H](C)CO)C[C@@H]1C is entered as . | . | 0.0 | . | . | -9.7
# CCN1[C@@H]2c3cccc(=O)n3C[C@@H]2[C@@H](CO)[C@@H]1C(=O)N1CCc2ccccc2C1 is entered as 17.5 | 3.1 | 0.0 | . | -0.2 | .
# O=C(C[C@@H]1CC[C@@H]2[C@H](COC[C@H](O)CN2Cc2ccc3c(c2)OCO3)O1)Nc1ccc(-c2ccccc2)cc1 is entered as -4.7 | 15.2* | 0.0 | . | -3.7 | 2.8
# O=C(C[C@H]1CC[C@@H]2[C@H](COC[C@@H](O)CN2S(=O)(=O)c2ccccc2)O1)NCC1CCCCC1 is entered as -28.7 | 100.2* | 0.0 | . | -3.8 | 5.5
